Laboratory results as given in ChEMBL document CHEMBL1150386 (J Med Chem, 2008).

Organism: Homo sapiens
Experiment: Ratio of Ki for human recombinant AChE to Ki for human recombinant BuChE

Compound | Ratio Ki
Cc1cc(CCNc2c3c(nc4ccccc24)CCCC3)cc(CCNc2c3c(nc4ccccc24)CCCC3)c1 | 1.48
c1ccc2c(NCCc3cocc3CCNc3c4c(nc5ccccc35)CCCC4)c3c(nc2c1)CCCC3 | 1.82
CC(=O)N(CCCNc1c2c(nc3ccccc13)CCCC2)CCCSc1c2c(nc3ccccc13)CCCC2 | 4.27
c1ccc2c(NCCCN3CCN(CCCNc4c5c(nc6ccccc46)CCCC5)CC3)c3c(nc2c1)CCCC3 | 0.03
CC(=O)N(CCCCSc1c2c(nc3ccccc13)CCCC2)CCCNc1c2c(nc3ccccc13)CCCC2 | 6.96
CC(=O)N(CCCCNc1c2c(nc3ccccc13)CCCC2)CCCNc1c2c(nc3ccccc13)CCCC2 | 0.34
CN(CCCCNc1c2c(nc3ccccc13)CCCC2)CCCNc1c2c(nc3ccccc13)CCCC2 | 0.01
OCCN(CCCCNc1c2c(nc3ccccc13)CCCC2)CCCNc1c2c(nc3ccccc13)CCCC2 | 0.1
CN(CCCCSc1c2c(nc3ccccc13)CCCC2)CCCNc1c2c(nc3ccccc13)CCCC2 | 0.46
C=CCN(CCCCNc1c2c(nc3ccccc13)CCCC2)CCCNc1c2c(nc3ccccc13)CCCC2 | 0.02
CC(=O)N(CCCCNc1c2c(nc3ccccc13)CCCC2)CCCSc1c2c(nc3ccccc13)CCCC2 | 77
CN(CCCNc1c2c(nc3ccccc13)CCCC2)CCCNc1c2c(nc3ccccc13)CCCC2 | 0.04
c1ccc2c(NCCCCCCCCSc3c4c(nc5ccccc35)CCCC4)c3c(nc2c1)CCCC3 | 16.9
c1ccc2c(NCCc3ccc(CCNc4c5c(nc6ccccc46)CCCC5)cc3)c3c(nc2c1)CCCC3 | 0.12
c1ccc2c(NCCCCNCCCSc3c4c(nc5ccccc35)CCCC4)c3c(nc2c1)CCCC3 | 3.42
CCN(CCCCNc1c2c(nc3ccccc13)CCCC2)CCCNc1c2c(nc3ccccc13)CCCC2 | 0.37
c1cc(CCNc2c3c(nc4ccccc24)CCCC3)nc(CCNc2c3c(nc4ccccc24)CCCC3)c1 | 0.41
c1cc(CCNc2c3c(nc4ccccc24)CCCC3)cc(CCNc2c3c(nc4ccccc24)CCCC3)c1 | 1.86
